# Measured affinities in a library of Ab-95 light chain variants

All variants were tested on one target, the spike HR2 peptide PDVDLGDISGINAS (SARS-CoV-2).

Each scFv is VH, a 15-residue (Gly4Ser)3 linker, VL, as in the parent Ab-95, and differs from it in the CDRs of the light chain only.
VH: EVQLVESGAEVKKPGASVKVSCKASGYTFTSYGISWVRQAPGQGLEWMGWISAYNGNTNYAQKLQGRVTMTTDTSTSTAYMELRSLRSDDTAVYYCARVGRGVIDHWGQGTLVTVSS
VL: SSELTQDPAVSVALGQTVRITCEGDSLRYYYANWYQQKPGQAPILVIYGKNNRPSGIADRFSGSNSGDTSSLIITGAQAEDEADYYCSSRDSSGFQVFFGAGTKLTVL

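The starting antibody came from a phage panning campaign against this peptide. Variants in AAYL52 differ from the parent at up to three CDR positions; double and triple changes were sampled at random. The scFvs were displayed on barcoded MATa yeast, the peptide on MATalpha yeast. After mating in shaken culture at 30 °C for 16 h, diploids were selected and their barcode pairs sequenced. Read counts were normalised to the haploid input and turned into Kd by a linear fit to BCL2-family pairs of known affinity, for each replicate. Mating was done three times.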

Substitutions are numbered in sequence along the VL above, starting at 1 (not Kabat).
Scale: log10 of Kd in nM, estimated from mating counts; low values are strong binders.
Averages over replicates are reported, and they cover detected replicates only.
"n.d." marks a missing value. The strain was present, yet no cells mated with the target were sequenced in that replicate, which points to weak or no binding.
Background: pairings of library AAYL52 with three empty control strains gave a value in 28% of cases (median 3.91, 5th percentile 2.90). Values in that range, when seen in few replicates, are hard to tell from nonspecific mating. Also given: how often the same scFv was detected with the empty control strains, with their mean in brackets.
For reference, the parent read 2.31 as the reference entry and 2.25 as a member of this library.

| # | changes | replicates, log10 nM | log10 Kd (nM), mean | control signals |
|---|---|---|---|---|
| 1 | Y31F/S89G/F95N | 2.76 / 2.95 / 2.51 | 2.74 | 3 of 9 (3.43) |
| 2 | R53C/F95G/V97F | n.d. / n.d. / 2.94 | 2.94 | 5 of 9 (3.93) |
| 3 | S93M/G94S/Q96E | 4.50 / 3.09 / 3.50 | 3.70 | 1 of 9 (4.23) |
| 4 | R90D/V97L | 3.48 / n.d. / 4.19 | 3.83 | 2 of 9 (2.99) |
| 5 | S92C/G94W | 2.35 / 2.49 / 2.42 | 2.42 | 3 of 9 (3.71) |
| 6 | N33W/R90A/Q96E | 5.39 / 4.55 / n.d. | 4.97 | 1 of 9 (3.76) |
| 7 | S26F/N52M/F98G | 2.76 / 2.63 / 2.46 | 2.62 | 5 of 9 (4.32) |
| 8 | E23H/Y30G/S92F | 1.30 / 1.20 / 0.94 | 1.14 | 1 of 9 (3.52) |
| 9 | Y30F/Q96A/V97R | 2.75 / 3.31 / 2.88 | 2.98 | 6 of 9 (3.96) |
| 10 | Y29N/Y30W/G49K | n.d. / n.d. / 4.25 | 4.25 | 1 of 9 (4.07) |
| 11 | E23S/N52P | 2.71 / 2.99 / 2.85 | 2.85 | 3 of 9 (4.02) |
| 12 | L27S/R28N/N33R | 3.93 / 3.76 / 3.51 | 3.73 | 4 of 9 (3.59) |
| 13 | N33S/R53D/F98C | n.d. / n.d. / 4.30 | 4.30 | 3 of 9 (4.18) |
| 14 | E23Q/S26G/Y29I | 2.64 / 2.79 / 2.90 | 2.77 | 4 of 9 (3.82) |
| 15 | G24E/N33W/N52K | n.d. / n.d. / n.d. | n.d. | 0 of 9 |
| 16 | Y31S/N33S/S55V | 2.25 / 2.87 / 2.49 | 2.53 | 1 of 9 (4.59) |
| 17 | S26L/N33K/S93L | 3.26 / n.d. / n.d. | 3.26 | 4 of 9 (3.90) |
| 18 | Y31Q/N51C/S89D | 5.36 / 4.30 / 3.13 | 4.27 | 2 of 9 (3.31) |
| 19 | L27T/R53N/S92E | n.d. / 4.62 / n.d. | 4.62 | 1 of 9 (4.07) |
| 20 | N52Y/S55Q/F98K | 3.96 / n.d. / 3.50 | 3.73 | 3 of 9 (4.26) |
| 21 | Y31S/Q96R/F98H | 2.24 / 2.09 / 1.86 | 2.06 | 2 of 9 (3.70) |
| 22 | Y29W/Y30A/G49D | 3.04 / 2.54 / 3.11 | 2.90 | 1 of 9 (3.82) |
| 23 | G49E/P54D | n.d. / 3.18 / 3.13 | 3.16 | 2 of 9 (3.79) |
| 24 | D25L/S89G | 2.78 / 2.57 / 2.17 | 2.51 | 5 of 9 (4.30) |
| 25 | G24F/P54T/G94L | 3.80 / 3.88 / 2.52 | 3.40 | 7 of 9 (3.58) |
| 26 | E23H/D25I/P54R | 4.44 / 3.33 / 2.60 | 3.46 | 2 of 9 (4.56) |
| 27 | D25K/Y30M/G49C | n.d. / n.d. / n.d. | n.d. | 5 of 9 (4.34) |
| 28 | R28Q/G94S/F95C | 4.47 / n.d. / n.d. | 4.47 | 1 of 9 (4.00) |
| 29 | S26C/Q96V/F98D | 3.95 / n.d. / 4.30 | 4.13 | 4 of 9 (3.98) |
| 30 | S55T/S89N/R90E | 4.08 / n.d. / n.d. | 4.08 | 2 of 9 (3.55) |
| 31 | S55T/R90C/F95Y | 3.02 / 2.80 / 3.67 | 3.16 | 6 of 9 (3.82) |
| 32 | Y30S/N33C/S88M | 2.53 / 1.85 / n.d. | 2.19 | 1 of 9 (3.68) |
| 33 | A32T/G49Y/P54C | n.d. / 4.72 / n.d. | 4.72 | 4 of 9 (4.35) |
| 34 | G24K/S89E/Q96C | 4.30 / 4.06 / n.d. | 4.18 | 3 of 9 (4.11) |
| 35 | P54E/S92I/G94L | 2.77 / 2.64 / 3.74 | 3.05 | 4 of 9 (3.90) |
| 36 | Y30I/N33D/G49R | n.d. / 2.25 / n.d. | 2.25 | 5 of 9 (3.72) |
| 37 | G24N/S88V/R90Y | n.d. / n.d. / n.d. | n.d. | 1 of 9 (2.73) |

5 of these entries, quoted again:

| changes | replicates, log10 nM | log10 Kd (nM), mean | control signals |
|---|---|---|---|
| A32T/G49Y/P54C | n.d. / 4.72 / n.d. | 4.72 | 4 of 9 (4.35) |
| R90D/V97L | 3.48 / n.d. / 4.19 | 3.83 | 2 of 9 (2.99) |
| L27S/R28N/N33R | 3.93 / 3.76 / 3.51 | 3.73 | 4 of 9 (3.59) |
| N52Y/S55Q/F98K | 3.96 / n.d. / 3.50 | 3.73 | 3 of 9 (4.26) |
| Y31F/S89G/F95N | 2.76 / 2.95 / 2.51 | 2.74 | 3 of 9 (3.43) |

Data: MIT Lincoln Laboratory AlphaSeq set, Engelhart et al. 2022, doi:10.1038/s41597-022-01779-4, as distributed in FLAb.